Reference: patent publication US20260207548A1, “METHODS AND COMPOSITIONS FOR THE TREATMENT OF VASCULAR ANOMALIES” (THE CHILDREN'S MEDICAL CENTER CORPORATION, priority 2022, published 2026)
“Also recorded” adds a separate entry of the source.

How the values were obtained:
[1] = system: β1- and β2-adrenergic receptors; conditions: cited from earlier work
[2] = system: SREBP2; test: SOX18 shRNA knockdown HemEC: SREBP2 Western blot and qPCR of SREBP2 target genes; assay type: cell-based, human; conditions: HemEC with SOX18 knockdown; hydrochloride
[3] = system: SREBP2; test: Western blot of SREBP2 in HemSC undergoing endothelial differentiation; assay type: cell-based, human; conditions: 2 hours on Day 6 of differentiation

Structure (SMILES): CC(C)NC[C@@H](O)COc1cccc2ccccc12.Cl [R(+) propranolol, R(+) propranolol hydrochloride]
- β1 and β2-adrenergic receptor antagonism [1]: largely devoid of beta-blocker activity
- 62 kDa to 125 kDa SREBP2 ratio [2]: constant ratio of 62 kDa to 125 kDa; also recorded: abrogates sensitivity of SREBP2
- 62 kDa/125 kDa SREBP2 ratio [3]: decreased the 62 kDa/125 kDa ratio
